Laboratory results taken from US20210379067A1 (iOmx Therapeutics AG, priority 2018, published 2021).

By UniProt entry, the sequences of proteins in these tests, tags left out. Residues count along the entry.
UniProt P36888, 27-993: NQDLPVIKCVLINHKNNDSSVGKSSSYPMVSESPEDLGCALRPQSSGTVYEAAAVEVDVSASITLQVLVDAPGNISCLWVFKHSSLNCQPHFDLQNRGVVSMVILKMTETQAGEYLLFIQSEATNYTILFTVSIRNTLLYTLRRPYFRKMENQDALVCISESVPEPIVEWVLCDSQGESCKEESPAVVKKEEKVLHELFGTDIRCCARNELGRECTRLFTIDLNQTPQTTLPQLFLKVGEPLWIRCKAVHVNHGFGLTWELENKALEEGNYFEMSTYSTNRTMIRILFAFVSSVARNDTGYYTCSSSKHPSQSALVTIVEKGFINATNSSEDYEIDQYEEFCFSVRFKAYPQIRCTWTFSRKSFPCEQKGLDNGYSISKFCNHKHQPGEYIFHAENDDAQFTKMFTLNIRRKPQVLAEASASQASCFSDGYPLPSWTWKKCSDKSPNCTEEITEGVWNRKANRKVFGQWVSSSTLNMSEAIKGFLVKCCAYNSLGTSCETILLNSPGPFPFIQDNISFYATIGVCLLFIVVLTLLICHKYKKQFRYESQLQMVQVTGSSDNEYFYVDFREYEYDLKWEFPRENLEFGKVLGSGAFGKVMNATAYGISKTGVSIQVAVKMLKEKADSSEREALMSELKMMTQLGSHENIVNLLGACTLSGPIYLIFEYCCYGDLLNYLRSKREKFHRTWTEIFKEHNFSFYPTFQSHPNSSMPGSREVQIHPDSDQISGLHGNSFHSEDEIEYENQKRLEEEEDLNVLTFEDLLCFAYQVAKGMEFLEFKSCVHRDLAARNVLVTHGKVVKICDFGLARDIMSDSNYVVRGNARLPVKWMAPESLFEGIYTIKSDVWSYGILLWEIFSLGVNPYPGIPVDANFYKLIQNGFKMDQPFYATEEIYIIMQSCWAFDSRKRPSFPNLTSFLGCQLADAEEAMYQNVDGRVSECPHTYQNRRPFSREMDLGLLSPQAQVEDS
UniProt Q62371, 22-854: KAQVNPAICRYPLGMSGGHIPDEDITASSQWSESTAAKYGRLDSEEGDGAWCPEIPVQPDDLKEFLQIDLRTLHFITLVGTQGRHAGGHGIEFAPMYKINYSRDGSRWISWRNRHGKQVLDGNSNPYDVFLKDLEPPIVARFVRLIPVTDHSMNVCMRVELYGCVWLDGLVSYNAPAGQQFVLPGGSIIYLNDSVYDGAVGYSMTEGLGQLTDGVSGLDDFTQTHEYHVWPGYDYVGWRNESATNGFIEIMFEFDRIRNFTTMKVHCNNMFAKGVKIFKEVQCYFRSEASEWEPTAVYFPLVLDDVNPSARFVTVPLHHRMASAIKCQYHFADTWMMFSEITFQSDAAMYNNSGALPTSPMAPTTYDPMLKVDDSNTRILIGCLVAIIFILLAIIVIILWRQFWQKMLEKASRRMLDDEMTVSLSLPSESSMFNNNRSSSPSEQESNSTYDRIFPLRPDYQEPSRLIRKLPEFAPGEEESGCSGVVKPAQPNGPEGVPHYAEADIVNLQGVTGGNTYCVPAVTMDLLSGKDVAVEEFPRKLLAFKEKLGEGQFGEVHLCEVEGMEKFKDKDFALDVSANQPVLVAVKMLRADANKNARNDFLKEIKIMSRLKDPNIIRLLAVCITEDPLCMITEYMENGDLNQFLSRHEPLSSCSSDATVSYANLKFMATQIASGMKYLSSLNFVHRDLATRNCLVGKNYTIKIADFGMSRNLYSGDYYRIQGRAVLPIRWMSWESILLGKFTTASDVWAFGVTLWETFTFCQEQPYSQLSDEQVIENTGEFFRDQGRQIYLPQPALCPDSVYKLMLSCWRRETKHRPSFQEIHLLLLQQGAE

Assays:
EPH-A6 = target: T1, EPH-A6 (Homo sapiens, UniProt Q9UF33); experiment: Kinase Profiler single-point (1 uM) inhibition; format: biochemical
T1 sequence (Q9UF33 23-1036): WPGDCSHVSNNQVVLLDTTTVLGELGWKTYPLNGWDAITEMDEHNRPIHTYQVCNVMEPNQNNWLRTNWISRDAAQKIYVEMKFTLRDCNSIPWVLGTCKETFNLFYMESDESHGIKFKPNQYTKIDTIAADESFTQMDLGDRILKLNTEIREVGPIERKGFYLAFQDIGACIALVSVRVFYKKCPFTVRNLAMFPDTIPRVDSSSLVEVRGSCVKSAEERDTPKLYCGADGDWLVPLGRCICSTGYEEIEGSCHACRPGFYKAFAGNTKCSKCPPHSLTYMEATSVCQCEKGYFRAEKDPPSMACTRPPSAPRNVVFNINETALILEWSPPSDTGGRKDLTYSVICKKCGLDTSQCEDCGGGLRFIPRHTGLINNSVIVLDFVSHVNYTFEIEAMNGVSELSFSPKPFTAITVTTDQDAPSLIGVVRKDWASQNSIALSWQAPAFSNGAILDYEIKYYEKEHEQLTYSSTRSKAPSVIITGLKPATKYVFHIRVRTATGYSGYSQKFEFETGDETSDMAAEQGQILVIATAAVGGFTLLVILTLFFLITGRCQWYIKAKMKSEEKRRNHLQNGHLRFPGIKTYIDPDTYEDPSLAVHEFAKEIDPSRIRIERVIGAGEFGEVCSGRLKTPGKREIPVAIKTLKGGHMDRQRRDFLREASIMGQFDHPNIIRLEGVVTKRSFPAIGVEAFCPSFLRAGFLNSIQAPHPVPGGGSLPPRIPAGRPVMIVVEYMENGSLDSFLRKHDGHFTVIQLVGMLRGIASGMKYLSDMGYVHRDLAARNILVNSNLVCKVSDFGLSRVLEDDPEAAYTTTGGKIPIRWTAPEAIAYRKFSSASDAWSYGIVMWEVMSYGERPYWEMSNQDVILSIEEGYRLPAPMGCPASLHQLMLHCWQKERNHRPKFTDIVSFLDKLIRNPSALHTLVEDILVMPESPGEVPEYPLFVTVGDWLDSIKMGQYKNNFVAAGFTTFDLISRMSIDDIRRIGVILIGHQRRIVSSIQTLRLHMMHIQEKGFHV

FLT3 = target: T2, FLT3 (Homo sapiens, UniProt P36888); experiment: Kinase Profiler single-point (1 uM) inhibition; format: biochemical
T2 construct: purchased ProQinase

DDR2 = DDR2 (Mus musculus, UniProt Q62371); conditions: multiple tumour models; combination; cited from earlier work

| SMILES | Residual activity (%) at 1 uM (EPH-A6) | Residual activity (%) at 1 uM (FLT3) | response to immune checkpoint blockade with PD1 inhibitors (DDR2) |
| --- | --- | --- | --- |
| Cc1nc(Nc2ncc(C(=O)Nc3c(Cl)ccnc3C)s2)cc(N2CCN(CCO)CC2)n1 [Compound B3, N-(4-chloro-2-methylpyridin-3-yl)-2-((6-(4-(2-hydroxyethyl)piperazin-1-yl)-2-methylpyrimidin-4-yl)amino)thiazole-5-carboxamide] | 86% | 32% | – |
| Cc1nc(Nc2ncc(C(=O)Nc3c(C)cccc3Cl)s2)cc(N2CCN(CCO)CC2)n1 [Compound A8, N-(2-chloro-6-methylphenyl)-2-((6-(4-(2-hydroxyethyl)piperazin-1-yl)-2-methylpyrimidin-4-yl)amino)thiazole-5-carboxamide] | – | – | significantly enhanced response |
